Source: ChEMBL document CHEMBL1811821, “Cystic fibrosis: a new target for 4-Imidazo[2,1-b]thiazole-1,4-dihydropyridines” (J Med Chem, 2011)

Assay: Bronchodilatory activity in guinea pig trachea assessed as inhibition of carbachol-induced contraction at 10^-5 M
Type: functional
Settings: Cavia porcellus

CCOC(=O)C1=C(C)NC(C)=C(C(=O)OCC)C1c1c(Cl)nc2sc(C)cn12
inhibition at 10 µM: 92%
